pEC50: −log10 of the molar value.
Molecular target: human calcium receptor (Homo sapiens, UniProt P41180)
Assay: Activity on calcium receptors: fluo-3 fluorescence in HEK293 cells transfected with human calcium receptor gene
Conditions: HEK293 cells transfected with plasmid pHuPCaR4.0 (human calcium receptor gene), loaded with fluo-3; 1 mM CaCl2, 1 mM MgCl2
Procedure: The activities of the compounds of the present invention on calcium receptors were measured. The measurement was performed in accordance with the method described in Example 4 of Nemeth et al., PCT/US95/13704 (International Publication No. WO96/12697). In brief, HEK293 cells were transfected with a plasmid pHuPCaR4.0 containing a human calcium receptor gene and loaded with fluo-3. The loading was carried out by incubating the cells at 37° C. for 1 hour in Dulbecco's modified Eagle's medium which contained about 5 μM of fluo-3/AM and had been buffered with 20 mM HEPES. Next, the cells were rinsed with Hank's balanced salt solution which contained 1 mM CaCl2 and 1 mM MgCl2 and had been buffered with 20 mM HEPES. Then each test compound was added to the cells and the fluorescence was measured with the use of an excitation wavelength of 485 nm and an emission wavelength of 540 nm.

Protein sequences, listed by entry. Tags and fused reporters are not part of them. Residues count along the entry.
UniProt P41180, 20-1078 limits assumed: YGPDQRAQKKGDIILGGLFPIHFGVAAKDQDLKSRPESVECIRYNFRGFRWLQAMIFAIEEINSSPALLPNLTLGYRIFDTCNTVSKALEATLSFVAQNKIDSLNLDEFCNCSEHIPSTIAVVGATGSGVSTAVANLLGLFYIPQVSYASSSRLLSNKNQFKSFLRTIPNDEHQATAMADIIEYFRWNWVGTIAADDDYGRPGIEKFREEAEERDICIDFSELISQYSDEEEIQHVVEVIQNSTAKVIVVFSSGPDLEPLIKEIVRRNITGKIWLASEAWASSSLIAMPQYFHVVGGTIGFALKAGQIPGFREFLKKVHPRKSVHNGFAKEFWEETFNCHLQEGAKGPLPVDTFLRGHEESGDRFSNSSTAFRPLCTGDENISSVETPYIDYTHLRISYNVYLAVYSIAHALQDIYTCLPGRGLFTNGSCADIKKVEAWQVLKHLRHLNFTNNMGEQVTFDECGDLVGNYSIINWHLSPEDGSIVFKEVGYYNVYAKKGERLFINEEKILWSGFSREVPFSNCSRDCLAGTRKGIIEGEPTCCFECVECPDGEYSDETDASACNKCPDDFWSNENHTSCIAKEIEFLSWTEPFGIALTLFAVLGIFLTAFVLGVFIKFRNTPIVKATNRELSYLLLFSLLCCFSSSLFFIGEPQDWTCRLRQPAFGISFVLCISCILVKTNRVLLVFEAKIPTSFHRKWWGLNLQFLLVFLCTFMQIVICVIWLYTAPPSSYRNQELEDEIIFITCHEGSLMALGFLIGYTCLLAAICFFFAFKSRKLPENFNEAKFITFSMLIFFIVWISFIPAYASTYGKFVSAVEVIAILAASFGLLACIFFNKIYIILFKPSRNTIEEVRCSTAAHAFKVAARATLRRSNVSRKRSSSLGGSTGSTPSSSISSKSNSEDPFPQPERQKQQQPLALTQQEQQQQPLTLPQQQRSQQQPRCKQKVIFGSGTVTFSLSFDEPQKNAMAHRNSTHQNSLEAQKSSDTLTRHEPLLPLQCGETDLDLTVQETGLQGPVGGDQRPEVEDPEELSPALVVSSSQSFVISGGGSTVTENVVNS

pEC50	Compound
6.57	COc1cccc([C@@H](C)NCCCOc2ccc3c(c2)oc2ccccc23)c1
6.32	COc1cccc([C@@H](C)NCCCOc2ccc3[nH]cc(C)c3c2)c1
6.04	C[C@@H](NCC[S+]([O-])c1cc(Cl)ccc1Cl)c1cccc2ccccc12 (stereo partly drawn)
6.03	COc1cccc([C@@H](C)NCCCCCCSc2nc3ccccc3o2)c1
6.51	COc1cccc([C@@H](C)NCCCCSc2ccccc2Cl)c1
6.82	COc1cccc([C@@H](C)NCCCCCSc2nc3ccccc3o2)c1
6.85	COc1cccc([C@@H](C)NCCCCSc2nc3ccccc3o2)c1
6.70	CCn1c2ccccc2c2cc(NCCCN[C@H](C)c3cccc4ccccc34)ccc21

Compound	pEC50
Cc1c[nH]c2ccc(OCCCN[C@H](C)c3cccc4ccccc34)cc12	5.80
C[C@@H](NCCC(=O)N1Cc2ccccc2SCC1c1ccccc1)c1cccc2ccccc12 (stereo partly drawn)	7.00
C[C@@H](NCCCOC1c2ccccc2-c2ccccc21)c1cccc2ccccc12	7.19
C[C@@H](NCCCOc1ccc2oc3ccccc3c2c1)c1cccc2ccccc12	6.57

Reference: US7816408B2, “Calcium receptor active compounds” (NPS Pharmaceuticals, Inc., priority 2002, dated 2010)
